RAD54 branch = inhibitors of human RAD54 branch migration, primary screen, biochemical, fluorescence, single point; inhibition, % at 10.4 µM; DNA repair and recombination protein RAD54-like (Homo sapiens), Q92698; AID 602329, 2012; RAD54 Holliday junction branch migration, FAM/BHQ fluorescence; 360,000 compounds, 0.14% hits;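 active = mean normalized replicate activity at least 40 and at least half of replicates scoring 40 or more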;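 note: 0% = median of neutral control wells and 100% = median of positive control wells; inhibitors cause a drop in the FAM fluorescence signal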
SIRT5 inh = SIRT5 desuccinylase inhibitors, primary screen, biochemical, fluorescence imaging, single point, set 5; NAD-dependent protein deacylase sirtuin-5, mitochondrial (Homo sapiens), Q9NXA8; Purified SirT5, succinyl-peptide AMC, trypsin-coupled fluorescence; inhibition, % at 15 µM; 330,000 compounds, 1.1% hits; in the data active = inhibition above about 15%
E-sel inducer = E-selectin induction in HUVECs, primary screen, imaging, HUVEC, immunofluorescence imaging, single point; P16581; normalized: neutral wells 0, TNF-alpha wells 100; activation, % at 7.58 µM; 260,000 compounds, 0.37% hits; AID 686992, 2013;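 active = mean E-selectin-positive cell signal at least 10% of the positive control, reached in at least 60% of replicates, without over 20% cell loss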
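Read-out basis: % PE-positive cells; Test system: HUVEC primary endothelial cells; Technique: immunofluorescence imaging; Dosing: single-point compound dose.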
AF4-AF9 inh = inhibitors of AF4 peptide binding to AF9, primary screen, biochemical, AlphaScreen, biotin-AF4 peptide, FLAG-AF9, single point. inhibition, % at 10 µM. 350,000 compounds, 0.47% hits;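 active = every replicate reaching a set inhibition limit, whatever the replicate mean, cut at about 25% in these data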;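 note: 0% = plate neutral control median and 100% = total signal loss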
RAD52 inh = RAD52 DNA annealing inhibitors, primary screen, biochemical, FRET, single point, set 2 | DNA repair protein RAD52 homolog (Homo sapiens), P43351 | recombinant RAD52 DNA annealing, FRET fluorescence | inhibition, % at 18.7 µM | 360,000 compounds, 0.46% hits;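 active = every replicate showing at least 50% inhibition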
UUG fidelity = alters start codon recognition fidelity in yeast | S. cerevisiae UUG-firefly luciferase reporter, luminescence/redox ratio | activity score, % at 18.7 µM | 350,000 compounds, 0.13% hits | AID 602363;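 active = replicate mean at a twofold rise or more, about +100% in these data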;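 note: firefly luciferase made from a UUG start codon reports start codon fidelity; reporter light over untreated wells divided by growth signal over untreated wells; some hits fall short of that in this replicate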
* marks the source's active call; other numbers are inactive results; · = not tested or not shown; ! = not confirmed by another sample. Shown are actives, neighbours in structure and some others; about 1.8% of the full set was active somewhere.

Protein sequences, listed by entry. Tags and fused reporters are not part of them.
DNA repair and recombination protein RAD54-like (Homo sapiens), Q92698, UniProt Q92698, whole entry, looked up: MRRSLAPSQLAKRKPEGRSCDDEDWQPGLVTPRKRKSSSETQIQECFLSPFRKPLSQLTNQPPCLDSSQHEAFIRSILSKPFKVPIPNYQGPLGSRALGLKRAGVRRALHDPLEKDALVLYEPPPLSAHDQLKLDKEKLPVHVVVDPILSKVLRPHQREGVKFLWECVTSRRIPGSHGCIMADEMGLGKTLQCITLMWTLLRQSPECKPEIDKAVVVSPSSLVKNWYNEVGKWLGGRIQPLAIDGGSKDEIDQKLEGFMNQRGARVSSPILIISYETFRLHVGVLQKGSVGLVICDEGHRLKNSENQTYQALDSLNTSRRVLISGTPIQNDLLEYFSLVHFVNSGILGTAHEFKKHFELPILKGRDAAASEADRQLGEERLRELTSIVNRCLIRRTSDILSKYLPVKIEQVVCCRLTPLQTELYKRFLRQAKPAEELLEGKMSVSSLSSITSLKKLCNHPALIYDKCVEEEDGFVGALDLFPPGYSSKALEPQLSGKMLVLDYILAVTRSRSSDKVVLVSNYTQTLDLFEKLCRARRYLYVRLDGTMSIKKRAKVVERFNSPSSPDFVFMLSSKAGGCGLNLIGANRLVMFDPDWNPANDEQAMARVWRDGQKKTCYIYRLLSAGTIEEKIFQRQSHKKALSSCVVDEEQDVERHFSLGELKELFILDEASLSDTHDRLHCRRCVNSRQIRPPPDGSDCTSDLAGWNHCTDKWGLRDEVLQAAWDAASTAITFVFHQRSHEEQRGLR
DNA repair protein RAD52 homolog (Homo sapiens), P43351, UniProt P43351, whole entry, looked up: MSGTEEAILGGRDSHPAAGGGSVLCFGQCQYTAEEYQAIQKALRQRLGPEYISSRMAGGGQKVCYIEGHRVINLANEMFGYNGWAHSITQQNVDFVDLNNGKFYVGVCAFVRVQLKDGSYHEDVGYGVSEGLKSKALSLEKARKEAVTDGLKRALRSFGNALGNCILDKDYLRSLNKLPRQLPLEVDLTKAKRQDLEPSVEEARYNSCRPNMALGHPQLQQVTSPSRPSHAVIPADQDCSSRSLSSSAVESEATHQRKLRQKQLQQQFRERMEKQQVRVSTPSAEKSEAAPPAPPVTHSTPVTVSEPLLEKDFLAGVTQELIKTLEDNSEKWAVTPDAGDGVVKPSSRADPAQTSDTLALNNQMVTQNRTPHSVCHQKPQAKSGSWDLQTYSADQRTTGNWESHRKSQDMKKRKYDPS

SMILES	RAD54 branch	SIRT5 inh	E-sel inducer	AF4-AF9 inh	RAD52 inh	UUG fidelity
COc1ccc(S(=O)(=O)Nc2ccc3c(c2)CC(=O)N([C@@H](C)CO)C[C@@H](C)[C@@H](CN(C)C(=O)Nc2ccccc2)O3)cc1	1	0	0	2	2	28
Cc1ccc(CNc2nc(NC(C)C)nc3ccsc23)c(C)c1	-3	21*	0	10	7	-8
COCC(=O)Nc1ccc2c(c1)[C@@H]1C[C@H](CC(=O)NC3CCCC3)O[C@H](CO)[C@@H]1O2	3	-2	0	0	-9	-20
N#Cc1cccc(-c2ccc(C3[C@@H]4CN(Cc5cocn5)C[C@H]3N4)cc2)c1 (stereo partly specified)	·	3	0	16	65*	·
N#Cc1cccc(-c2ccc(C3[C@@H]4CN(Cc5ccccc5F)C[C@H]3N4)cc2)c1 (stereo partly specified)	·	2	0	10	83*!	·
COc1ccc(CN(C)C[C@H]2OCCCC[C@H](C)Oc3ccc(NC(=O)Nc4ccccc4)cc3C(=O)N([C@H](C)CO)C[C@H]2C)cc1	2	·	0	·	·	21
CO[C@H]1CN(C)C(=O)c2ccc(NC(=O)Nc3ccc(Cl)cc3)cc2OC[C@@H](C)N(C(=O)Nc2c(C)noc2C)C[C@@H]1C	-4	0	0	4	-5	-1
C[C@@H]1CN([C@H](C)CO)S(=O)(=O)c2ccc(C3=CCCC3)cc2O[C@@H]1CN(C)S(C)(=O)=O	·	·	5	·	·	·
O=C(c1ccccc1[N+](=O)[O-])N1CCN(c2ccc(N3CCOCC3)nn2)CC1	-11	2	58*	-3	-1	-21
Cc1ccccc1C(=O)N1CCN(c2ccc(N3CCOCC3)nn2)CC1	-3	-3	·	1	-12	-6
C[C@H]1ON(c2ccccc2)[C@@H](c2ccccc2)[C@@H]1C(=O)N1C(=O)OC[C@@H]1c1ccccc1	7	0	·	-3	1	-16
CC(C)CCCCCCCCc1cccc(O)c1C(=O)O	·	20*	·	3	-4	·
COc1ccc(S(=O)(=O)Nc2ccc3c(c2)C(=O)N([C@H](C)CO)C[C@H](C)[C@@H](CN(C)Cc2ccc(C(F)(F)F)cc2)OCCCC[C@H](C)O3)cc1	0	15	1	-1	3	10
COc1ccc(S(=O)(=O)Nc2ccc3c(c2)C(=O)N([C@H](C)CO)C[C@@H](C)[C@H](CN(C)Cc2ccc(C(F)(F)F)cc2)OCCCC[C@H](C)O3)cc1	1	15*	0	3	29	11
COc1ccc(S(=O)(=O)Nc2ccc3c(c2)C(=O)N([C@@H](C)CO)C[C@H](C)[C@@H](CN(C)Cc2ccc(C(F)(F)F)cc2)OCCCC[C@H](C)O3)cc1	-5	17*	0	0	12	26
C[C@@H]1CN([C@H](C)CO)C(=O)CCCn2nncc2CO[C@@H]1CN(C)C(=O)Nc1cccc(C(F)(F)F)c1	-1	-4	0	0	-1	-5
COc1ccc(CN(C)C[C@H]2OCCCC[C@@H](C)Oc3ccc(NC(=O)NC4CCCCC4)cc3C(=O)N([C@H](C)CO)C[C@H]2C)cc1	1	19*	0	13	8	12
COc1ccc(CN(C)C[C@H]2OCCCC[C@@H](C)Oc3ccc(NC(=O)NC4CCCCC4)cc3C(=O)N([C@H](C)CO)C[C@@H]2C)cc1	-11	1	0	1	11	4
COc1ccc(NC(=O)Nc2ccc3c(c2)C(=O)N([C@H](C)CO)C[C@@H](C)[C@H](CN(C)Cc2ccccc2)OCCCC[C@@H](C)O3)cc1	8	-2	0	15	69*	14
COc1ccc(NC(=O)Nc2ccc3c(c2)C(=O)N([C@H](C)CO)C[C@@H](C)[C@H](CN(C)CC2CC2)OCCCC[C@@H](C)O3)cc1	6	5	0	28*	38	·
COc1ccc(NC(=O)Nc2ccc3c(c2)C(=O)N([C@H](C)CO)C[C@@H](C)[C@@H](CN(C)Cc2ccccc2)OCCCC[C@@H](C)O3)cc1	-2	5	0	18	49	23
COc1ccc(NC(=O)Nc2ccc3c(c2)C(=O)N([C@@H](C)CO)C[C@@H](C)[C@H](CN(C)Cc2ccccc2)OCCCC[C@H](C)O3)cc1	1	-3	0	6	52*	15
COc1ccc(NC(=O)Nc2ccc3c(c2)C(=O)N([C@H](C)CO)C[C@H](C)[C@@H](CN(C)CC2CC2)OCCCC[C@@H](C)O3)cc1	6	1	0	16	26	·
Cc1ccc(S(=O)(=O)Nc2ccc3c(c2)C(=O)N([C@H](C)CO)C[C@H](C)[C@@H](CN(C)CC2CC2)OCCCC[C@@H](C)O3)cc1	0	1	0	-8	9	5
CCCc1cn(CC[C@H]2CC[C@H](NS(=O)(=O)c3ccccc3Cl)[C@@H](CO)O2)nn1	1	4	0	2	2	5
C[C@@H]1CCCCO[C@@H](CN(C)Cc2ccc3c(c2)OCO3)[C@H](C)CN([C@H](C)CO)C(=O)c2cc(NC(=O)Nc3ccccc3)ccc2O1	-2	1	0	15	47	17
COc1ccc(NC(=O)Nc2ccc3c(c2)C(=O)N([C@@H](C)CO)C[C@H](C)[C@@H](CN(C)Cc2ccccc2)OCCCC[C@@H](C)O3)cc1	1	-3	0	12	56*	23
COc1ccc(NC(=O)Nc2ccc3c(c2)C(=O)N([C@@H](C)CO)C[C@@H](C)[C@@H](CN(C)Cc2ccccc2)OCCCC[C@@H](C)O3)cc1	0	4	0	12	53*	39
CCC(=O)N1[C@H](C(=O)Nc2ccccc2)[C@@H](CO)[C@@H]2Cn3c(ccc(C4=CCCC4)c3=O)[C@@H]21	-5	-2	0	-1	-4	·
C[C@H]1CN([C@@H](C)CO)C(=O)Cc2cc(NS(=O)(=O)c3ccc(Cl)cc3)ccc2O[C@@H]1CN(C)C(=O)Nc1ccc2c(c1)OCO2	·	·	1	·	·	·
CCN(CC)c1ccc(/C=N/N2CCN(Cc3ccc(C)cc3)CC2)c(O)c1	-3	20*	·	18	-7	-13
C[C@H](CO)N1C[C@H](C)[C@@H](CN(C)S(=O)(=O)c2ccc(F)cc2)Oc2cc(C3=CCCCC3)ccc2S1(=O)=O	6	19*	0	-1	-5	-17

Ordered by SMILES length (descending): 3 of the compounds above
SMILES	RAD54 branch	SIRT5 inh	E-sel inducer	AF4-AF9 inh	RAD52 inh	UUG fidelity
CO[C@H]1CN(C)C(=O)c2ccc(NC(=O)Nc3ccc(Cl)cc3)cc2OC[C@@H](C)N(C(=O)Nc2c(C)noc2C)C[C@@H]1C	-4	0	0	4	-5	-1
C[C@H](CO)N1C[C@H](C)[C@@H](CN(C)S(=O)(=O)c2ccc(F)cc2)Oc2cc(C3=CCCCC3)ccc2S1(=O)=O	6	19*	0	-1	-5	-17
N#Cc1cccc(-c2ccc(C3[C@@H]4CN(Cc5ccccc5F)C[C@H]3N4)cc2)c1 (stereo partly specified)	·	2	0	10	83*!	·

Copied from the listing (2 entries):
SMILES	RAD54 branch	SIRT5 inh	E-sel inducer	AF4-AF9 inh	RAD52 inh	UUG fidelity
COc1ccc(S(=O)(=O)Nc2ccc3c(c2)CC(=O)N([C@@H](C)CO)C[C@@H](C)[C@@H](CN(C)C(=O)Nc2ccccc2)O3)cc1	1	0	0	2	2	28
Cc1ccc(CNc2nc(NC(C)C)nc3ccsc23)c(C)c1	-3	21*	0	10	7	-8

From PubChem BioAssay
